Assay results reported in patent publication US10676467B2 (Washington University, priority 2017, dated 2020).
Like-named read-outs stand apart in the source and are kept apart here.

Amino acid sequences for entries named in this document (tags omitted).
UniProt P21453, whole entry: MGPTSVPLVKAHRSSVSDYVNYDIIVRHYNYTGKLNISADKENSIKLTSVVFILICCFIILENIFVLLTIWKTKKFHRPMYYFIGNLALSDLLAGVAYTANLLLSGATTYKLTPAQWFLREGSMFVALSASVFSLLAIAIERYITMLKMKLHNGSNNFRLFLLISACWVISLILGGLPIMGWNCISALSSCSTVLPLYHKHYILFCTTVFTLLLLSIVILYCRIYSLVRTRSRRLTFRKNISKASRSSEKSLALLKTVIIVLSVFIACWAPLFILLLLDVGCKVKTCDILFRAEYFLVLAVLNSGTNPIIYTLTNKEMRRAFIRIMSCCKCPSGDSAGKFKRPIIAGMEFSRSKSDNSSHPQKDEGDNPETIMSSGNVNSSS

Biological target: recombinant human S1P1 (Homo sapiens (Human), UniProt P21453)
Test: [32P]S1P competitive binding assay on cell membranes

IC50 (Table 9, avg, n = 2-3, read-out: S1P1 IC50, second value in parentheses (average) (converted)): 10.5 nM
IC50 (competition against [32P]S1P, membranes with recombinant human S1P1, mean ± SD, listed as TZ35104, read-out: S1P1 IC50 ± SD): 6.67 ± 0.7 nM
SMILES: OCc1ccc(-c2noc(-c3ccc(OCCF)c(C(F)(F)F)c3)n2)cc1 [Compound 8c, (4-(5-(4-(2-Fluoroethoxy)-3-(trifluoromethyl)phenyl)-1,2,4-oxadiazol-3-yl)phenyl)methanol]
